According to PMC8765437, “GSK3640254 Is a Novel HIV-1 Maturation Inhibitor with an Optimized Virology Profile” (Antimicrobial Agents and Chemotherapy, 2022):

Tests used:
[1] = system: NLRepRlucP373S-based viruses; type: cell-based, HIV-1; conditions: Wild type
HIV-1 Gag VLPs = type: binding; conditions: Wild type VLP
Protocol: In a 96-well white low-binding plate (Corning; Corning, NY), 0.5 to 1.2 μg of WT or other polymorphic or mutant VLPs was mixed in 40 μl of PBS with SPA beads (100 μg/well, PVT-WGA SPA beads; PerkinElmer) for 1 h at room temperature, and then the volume was increased to 200 μl/well by the addition of binding buffer (100 mM Tris [pH 6.5], 2 mM EDTA, 0.03% Tween 20, and 5 mM MgCl2). Serial dilutions of ^3H-MIs were then added to wells. The final concentration of DMSO in the assay was 10% (vol/vol). After an approximately 4-h equilibration at room temperature, bound ^3H-MIs were measured using a Top Count or Microbeta2 plate reader (PerkinElmer). Kd values were calculated by fitting the data using GraphPad Prism v5.1.

C=C(C)[C@@H]1CC[C@]2(NCCN3CCS(=O)(=O)CC3)CC[C@]3(C)[C@H](CC[C@@H]4[C@@]5(C)CC=C(C6=CC[C@@](CF)(C(=O)O)CC6)C(C)(C)[C@@H]5CC[C@]43C)[C@@H]12 [GSK’254]
Serum effect (±HS EC50 ratio) [1]: 8.8
Relative GSK’254/GSK’795 affinity (HIV-1 Gag VLPs): 2.1
